The species entered for this assay is Homo sapiens. In words: Selectivity ratio of IC50 for recombinant human GST-fused EPAC2-B domain (283 to 1011 residues) expressed in Escherichia coli Rosetta (DE3) to IC50 for recombinant human GST-fused EPAC1 expressed in Escherichia coli Rosetta (DE3).

The results in this text go back to ChEMBL document CHEMBL4177657, “Structure-activity relationships of 2-substituted phenyl-N-phenyl-2-oxoacetohydrazonoyl cyanides as novel antagonists of exchange proteins directly activated by cAMP (EPACs)” (Bioorg Med Chem Lett, 2017).

Take `C[C@@H]1CCc2c(cc(Br)c(F)c2Br)N1C=O`: the Ratio IC50 turned out to be 10.
